Test results from BindingDB's records for doi:10.1124/mol.61.2.415 (University of Ferrara, 2002).

Sequences of proteins named here, by UniProt entry; tags and fusion partners are left off.
UniProt P0DMS8, whole entry: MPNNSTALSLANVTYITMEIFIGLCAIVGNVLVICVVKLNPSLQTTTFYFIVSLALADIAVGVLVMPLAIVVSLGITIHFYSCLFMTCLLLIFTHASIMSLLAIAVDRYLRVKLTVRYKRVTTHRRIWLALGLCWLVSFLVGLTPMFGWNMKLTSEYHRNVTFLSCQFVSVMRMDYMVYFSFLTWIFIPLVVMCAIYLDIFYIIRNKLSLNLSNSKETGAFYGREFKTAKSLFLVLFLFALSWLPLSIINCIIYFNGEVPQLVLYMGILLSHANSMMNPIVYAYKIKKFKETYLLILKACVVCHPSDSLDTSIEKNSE

Target: Adenosine receptor A3 (Homo sapiens, UniProt P0DMS8)

Ki	SMILES
2.3 nM and 2 nM	CCCn1cc2c(nc(NC(=O)Nc3ccc(OC)cc3)n3nc(-c4ccco4)nc23)n1 [J1.251.181G]
2600 nM and 2300 nM and > 10000 nM	CC(Cc1ccccc1)Nc1ncnc2c1ncn2C1OC(CO)C(O)C1O (configuration not stated) [R-N6-(2-phenylisopropyl) adenosine]

Values joined by “and” are separate entries in the source; they are usually repeats but may differ in a detail not shown here. Equal entries are not always repeated.
